Literature values, collected in patent publication US20210316003A1 (Immunomedics, Inc., priority 2020, published 2021).

Tested on: patients with metastatic colorectal cancer (mCRC)
Conditions: cited from earlier work

Question: What does the source list for cetuximab: anti-EGFR antibody?
Answer: Overall survival (RAS/BRAF mutations in ctDNA): 3.1 months; Progression-free survival (RAS/BRAF mutations in ctDNA): 1.8 months; Overall survival (without mutations): 9.4 months; Progression-free survival (without mutations): 4.9 months

Read-outs that look alike come from different tables or passages of the source.
